Patent US9765029B2, “Pyridine compounds as sodium channel blockers” (Purdue Pharma L.P., priority 2010, dated 2017)

By UniProt entry, the sequences of proteins in these tests, tags left out. Chains listed by the source or under a name are the forms on record and can include a tag or linker.
UniProt Q15858, other isoform, or with tags, fused parts or gaps: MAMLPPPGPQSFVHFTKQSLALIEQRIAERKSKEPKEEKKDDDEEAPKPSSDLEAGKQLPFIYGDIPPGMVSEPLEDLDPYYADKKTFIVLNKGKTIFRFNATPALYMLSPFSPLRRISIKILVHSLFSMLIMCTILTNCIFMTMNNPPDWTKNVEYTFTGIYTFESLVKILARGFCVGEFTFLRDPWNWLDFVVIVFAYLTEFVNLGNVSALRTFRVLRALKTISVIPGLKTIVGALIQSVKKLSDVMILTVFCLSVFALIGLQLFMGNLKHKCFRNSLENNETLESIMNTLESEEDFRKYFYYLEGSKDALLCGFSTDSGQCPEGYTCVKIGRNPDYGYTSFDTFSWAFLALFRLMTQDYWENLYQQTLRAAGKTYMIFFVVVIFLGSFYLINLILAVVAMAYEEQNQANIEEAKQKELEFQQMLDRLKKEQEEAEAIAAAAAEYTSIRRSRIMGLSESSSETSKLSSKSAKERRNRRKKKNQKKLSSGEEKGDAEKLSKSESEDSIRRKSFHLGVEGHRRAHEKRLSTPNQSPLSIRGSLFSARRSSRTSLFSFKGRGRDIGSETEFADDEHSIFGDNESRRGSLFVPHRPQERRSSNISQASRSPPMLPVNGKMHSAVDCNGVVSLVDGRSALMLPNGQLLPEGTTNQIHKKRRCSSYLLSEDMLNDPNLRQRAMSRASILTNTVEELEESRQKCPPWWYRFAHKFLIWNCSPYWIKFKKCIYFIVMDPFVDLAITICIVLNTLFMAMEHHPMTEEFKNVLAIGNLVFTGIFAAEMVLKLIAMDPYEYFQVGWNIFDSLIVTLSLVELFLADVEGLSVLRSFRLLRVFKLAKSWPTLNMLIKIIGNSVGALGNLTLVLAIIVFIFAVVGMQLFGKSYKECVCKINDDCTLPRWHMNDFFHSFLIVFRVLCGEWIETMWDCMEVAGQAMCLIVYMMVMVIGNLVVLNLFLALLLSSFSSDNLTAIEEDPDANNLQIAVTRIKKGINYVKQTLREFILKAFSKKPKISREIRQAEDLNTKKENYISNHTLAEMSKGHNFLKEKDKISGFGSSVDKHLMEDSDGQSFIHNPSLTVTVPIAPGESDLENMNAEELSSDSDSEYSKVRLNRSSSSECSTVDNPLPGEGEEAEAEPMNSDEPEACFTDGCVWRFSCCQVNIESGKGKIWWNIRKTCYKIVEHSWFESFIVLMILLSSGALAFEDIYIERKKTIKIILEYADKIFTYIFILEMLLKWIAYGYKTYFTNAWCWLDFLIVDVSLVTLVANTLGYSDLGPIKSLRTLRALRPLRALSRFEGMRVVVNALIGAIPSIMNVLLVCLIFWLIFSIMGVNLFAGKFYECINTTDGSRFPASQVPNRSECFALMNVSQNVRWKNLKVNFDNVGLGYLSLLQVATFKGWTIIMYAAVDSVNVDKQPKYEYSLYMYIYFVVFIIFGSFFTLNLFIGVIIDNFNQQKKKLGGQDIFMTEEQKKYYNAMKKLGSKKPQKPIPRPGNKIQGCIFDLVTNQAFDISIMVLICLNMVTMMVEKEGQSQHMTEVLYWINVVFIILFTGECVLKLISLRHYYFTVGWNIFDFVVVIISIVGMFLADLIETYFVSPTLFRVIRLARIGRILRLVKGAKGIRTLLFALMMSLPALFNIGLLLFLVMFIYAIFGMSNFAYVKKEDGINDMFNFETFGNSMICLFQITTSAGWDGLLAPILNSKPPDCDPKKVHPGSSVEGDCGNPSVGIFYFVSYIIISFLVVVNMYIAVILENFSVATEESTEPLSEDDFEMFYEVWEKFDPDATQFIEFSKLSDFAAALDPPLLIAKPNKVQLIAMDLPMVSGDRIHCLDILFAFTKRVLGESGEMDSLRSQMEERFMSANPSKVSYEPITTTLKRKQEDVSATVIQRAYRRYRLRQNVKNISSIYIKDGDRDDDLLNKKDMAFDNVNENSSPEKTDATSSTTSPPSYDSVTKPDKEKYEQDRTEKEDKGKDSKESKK

Target: human Nav1.7 (Homo sapiens (Human), UniProt Q15858)
Assay: FLIPR or FLIPR TETRA sodium dye assay with KCl and test article pre-incubation
Format: cell-based
Conditions: read-out: Nav1.7 IC50 (μM) ± SEM
Protocol: In vitro assays were performed in a recombinant cell line expressing cDNA encoding the alpha subunit (Nav1.7, SCN9a, PN1, NE) of human Nav1.7 (Accession No. NM_002977). The cell line was provided by investigators at Yale University (Cummins et al, J. Neurosci. 18(23): 9607-9619 (1998)). For dominant selection of the Nav1.7-expressing clones, the expression plasmid co-expressed the neomycin resistance gene. The cell line was constructed in the human embryonic kidney cell line, HEK293, under the influence of the CMV major late promoter, and stable clones were selected using limiting dilution cloning and antibiotic selection using the neomycin analogue, G418. Recombinant beta and gamma subunits were not introduced into this cell line. […]
The fluorescence indicator used in the primary fluorescence assay was the cell permeant version of CoroNa™ Green (Invitrogen, Molecular Probes, Eugene, Oreg.), a dye that emits light in the fluorescence range (Harootunian et al., J. Biol. Chem. 264(32):19458-19467 (1989)). […] Cells expressing Nav1.7 or other sodium channels were loaded with the CoroNa™ Green dye immediately in advance of the fluorescence assay, and then, after agonist stimulation, the mobilization of Na^+ ions was detected as the Na^+ions flowed from the extracellular fluid into the cytoplasm through the activated sodium channel pores. […]

Substance “6-(4-(4-fluorophenoxyl)phenyl)-N-(2-(pyridine-3-sulfonamido)ethyl) picolinamide [Compound 22]” has an IC50 of 0.31 ± 0.03 µM.
